Tests used:
[1] = test system: adhesion of CGL1 cells to MN/CA IX; test: Inhibition of cell adhesion to MN/CA IX dots by oligopeptides added to the media with the cell suspension (Figure 4B); type: cell-based, human; settings: nonapeptides 7 + 2 aa, C-terminal alanine amide, absorbance at 630 nm of stained attached cells
[2] = target: T1, M75 epitope of immobilized GST-MN (Homo sapiens, UniProt Q16790); test: Competition ELISA, peptides binding to the epitope of immobilized GST-MN (Figure 4A); settings: nonapeptides 7 + 2 aa, C-terminal alanine amide
T1 construct: made in house; host or cells: bacteria

With “4: AGQTRSPLA, identified by panning on GST-MN and eluted with acetazolamide [compound 4]” the “activity in cell adhesion inhibition of phage display-selected peptides (in words)” value [1] was “inactive” and the “activity in competition ELISA of phage display-selected peptides (in words)” value [2] was “inactive”.

Source: publication PMC2363230, “Human tumour-associated cell adhesion protein MN/CA IX: identification of M75 epitope and of the region mediating cell adhesion” (British Journal of Cancer, 2000)
